Read-outs that look alike come from different tables or passages of the source.
Tests used:
[1] = set-up: method as in Yung et al. [1991]; settings: ref Yung et al. [1991]; cited from earlier work
[2] = test system: pregnant cynomolgus monkeys; settings: cited from earlier work; for Dose showing developmental toxicity: ref US FDA report
[3] = test system: migration of hESC-derived neural crest cells (NCC); assay: MINC assay (migration inhibition of neural crest cells, UKN2); settings: 48 h

For interferon β [IFNβ], the “Higher concentrations reached upon i.v. bolus injections, relative to 1.9-3 pM” value [1] is listed as “About 100 fold”, the “Dose showing developmental toxicity” value ([2]; GD90 to term, assuming 22.5 kDa) is listed as 33 pmol/kg/day and the “Dose showing developmental toxicity” value ([2]; gestational day 90 to term (GD160)) is listed as 740 ng/kg/day. For the same substance, the “Dose increasing spontaneous abortions and/or fetal loss” value ([2]; intramuscular, GD90 through term, ref US FDA (1999)) was 0.033 nmol IFN-β/kg/day, the “Effect on NCC migration in concentration-response study” value ([3]; in a non-cytotoxic concentration range) was “concentration-dependent effect” and the “Hit classification in the MINC screen” value ([3]; highest non-cytotoxic concentration, hit = ≥25 % reduction in NCC migration with ≤10 % cytotoxicity) was “hits”.
